# Literature values, collected in paper PMC8629808.
# System: male Sprague–Dawley rats
# Conditions: 32 mg/kg s.c., ref Geller et al. 1983
compound,measurement,value
CN1CC[C@]23c4c5ccc(O)c4O[C@H]2[C@@H](O)C=C[C@H]3[C@H]1C5,decrease in core body temperature,about 1.5 °C
